Species on record: Homo sapiens
Assay: Selectivity ratio of IC50 for recombinant human GST-tagged ALK to IC50 for recombinant human GST-tagged ROS1

Ratio IC50 | Structure (SMILES)
7 | Cc1ccc(CNC(=O)c2cccc(C(C)Oc3ccnc(Nc4cnn(C5CCN(C)CC5)c4)c3)c2)cc1 (configuration not stated)
12 | COc1ccc(CNC(=O)c2cccc(C(C)Oc3ccnc(Nc4cnn(C5CCNCC5)c4)c3)c2)cc1OC (configuration not stated)

Reference: ChEMBL document CHEMBL4138202, “Design, synthesis, biological evaluation and molecular modeling of novel 2-amino-4-(1-phenylethoxy) pyridine derivatives as potential ROS1 inhibitors” (Eur J Med Chem, 2018)
